Experimental data as given in patent publication US20250304643A1, “PEPTIDE DUAL AGONISTS OF GIPR AND GLP2R” (BAINAN BIOTECH APS, priority 2021, published 2025).

The chains behind the UniProt entries cited, without tags or fusion partners. Residues count along the entry.
UniProt P43220, 24-463: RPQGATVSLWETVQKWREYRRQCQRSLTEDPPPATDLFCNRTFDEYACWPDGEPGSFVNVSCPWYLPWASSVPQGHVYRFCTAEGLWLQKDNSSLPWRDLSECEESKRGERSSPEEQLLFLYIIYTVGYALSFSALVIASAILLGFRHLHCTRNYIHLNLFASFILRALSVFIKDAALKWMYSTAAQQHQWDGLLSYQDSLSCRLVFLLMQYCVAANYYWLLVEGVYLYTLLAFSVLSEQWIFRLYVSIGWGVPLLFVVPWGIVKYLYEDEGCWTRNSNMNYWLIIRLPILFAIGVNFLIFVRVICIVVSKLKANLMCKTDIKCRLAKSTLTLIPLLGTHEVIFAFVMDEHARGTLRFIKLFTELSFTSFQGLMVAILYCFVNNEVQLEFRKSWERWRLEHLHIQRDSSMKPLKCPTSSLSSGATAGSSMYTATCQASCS

What was measured:
Assay type in all cases: cell-based
human GLP-1R = target: T1, human GLP-1R (Homo sapiens, UniProt P43220); experiment: HitHunter cAMP assay in transiently transfected COS-7 cells, human GLP-1R
T1 construct: host or cells: COS-7
Method: (§1) The next day the assay was initiated by washing with HEPES buffered saline (HBS) and followed by an incubation step with assay buffer (HBS added 1 mM isobutyl-1-methylxanthine (IBMX)) for 30 min at 37° C. The ligands were then added and incubated for an additional 30 min at 37° C. After ligand incubation, the HitHunter® CAMP assay (Eurofins DiscoverX, Fremont, […] USA) was carried out according to the manufacturer's instructions. Luminescence was measured by PerkinElmer™ EnVision 2014 Multilabel Reader (PerkinElmer, Waltham, MA). The potencies (EC50 values) were determined by nonlinear regression using GraphPad Prism 9 (San Diego, California, USA). Sigmoid curves were fitted logistically. The efficacies (Emax values) were determined by normalization to the highest concentration applied of the endogenous ligand for each receptor.

human GLP-2R = target: T2, human GLP-2R (Homo sapiens, UniProt O95838); experiment: HitHunter cAMP assay in transiently transfected COS-7 cells, human GLP-2R;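 further: cells kept 30 min at 37 °C in buffer with 1 mM IBMX, then given ligand for another 30 min at 37 °C before cAMP readout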
T2 construct: host or cells: COS-7
T2 sequence (O95838 1-553): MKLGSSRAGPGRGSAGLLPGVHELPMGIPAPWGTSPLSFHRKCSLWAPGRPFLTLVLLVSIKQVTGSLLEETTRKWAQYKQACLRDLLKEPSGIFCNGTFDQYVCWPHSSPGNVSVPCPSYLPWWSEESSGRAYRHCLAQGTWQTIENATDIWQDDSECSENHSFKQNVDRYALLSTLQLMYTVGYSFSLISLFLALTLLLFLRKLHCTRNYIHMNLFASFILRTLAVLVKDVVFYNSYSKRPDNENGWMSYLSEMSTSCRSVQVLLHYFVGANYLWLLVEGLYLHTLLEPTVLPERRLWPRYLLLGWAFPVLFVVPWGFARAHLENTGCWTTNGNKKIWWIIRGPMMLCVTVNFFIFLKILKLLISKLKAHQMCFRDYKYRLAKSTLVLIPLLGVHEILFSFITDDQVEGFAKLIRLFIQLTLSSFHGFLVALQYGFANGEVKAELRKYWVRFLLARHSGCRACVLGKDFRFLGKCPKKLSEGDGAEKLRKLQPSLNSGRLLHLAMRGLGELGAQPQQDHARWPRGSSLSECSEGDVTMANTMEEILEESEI

human GIPR = target: T3, human GIPR (Homo sapiens, UniProt P48546); parameters: host or cells: COS-7; details: Table 2; for EC50 / PEC50 GIPR: cAMP, COS-7 cells expressing human GIPR; for Efficacy GIPR: Emax normalized to highest concentration of endogenous ligand
T3 sequence (P48546 22-466): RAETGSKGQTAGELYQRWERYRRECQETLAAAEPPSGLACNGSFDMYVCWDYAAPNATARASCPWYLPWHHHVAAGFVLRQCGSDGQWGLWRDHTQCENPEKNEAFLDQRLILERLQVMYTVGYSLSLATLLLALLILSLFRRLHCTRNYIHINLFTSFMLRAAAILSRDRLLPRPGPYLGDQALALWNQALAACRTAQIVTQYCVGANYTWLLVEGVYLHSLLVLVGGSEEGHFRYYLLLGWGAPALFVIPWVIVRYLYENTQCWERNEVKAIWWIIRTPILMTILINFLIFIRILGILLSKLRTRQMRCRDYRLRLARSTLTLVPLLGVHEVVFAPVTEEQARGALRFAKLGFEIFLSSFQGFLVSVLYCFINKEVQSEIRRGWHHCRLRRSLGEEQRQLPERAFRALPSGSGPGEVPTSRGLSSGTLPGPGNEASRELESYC
Method: as §1

[1] = cAMP, COS-7 cells expressing human GLP-1R, Table 3
[2] = cAMP, COS-7 cells expressing human GLP-2R, Table 2
[3] = comparative peptides, human GLP-1R, Table C
[4] = comparative peptides, human GLP-2R, Table B

| Substance | logEC50 GLP-1R (human GLP-1R; [1]) | EC50 (human GLP-2R; [2]) | logEC50 GLP-2R (human GLP-2R; [2]) | EC50 (human GIPR) | PEC50 GIPR (human GIPR) | EC50 (human GLP-1R; [1]) | Efficacy GIPR (human GIPR) | EC50 (human GLP-1R; [3]) | logEC50 GLP-1R (human GLP-1R; [3]) | EC50 (human GLP-2R; [4]) | logEC50 GLP-2R (human GLP-2R; [4]) |
| --- | --- | --- | --- | --- | --- | --- | --- | --- | --- | --- | --- |
| (C10)HADGTFISDYSTILDNLAAKDFINWLIQTKITKNDWKHNITQ [Compound no. 3] | no activation | 5 nM | 8.3 | 0.584 nM | 9.2 |  |  |  |  |  |  |
| (C10-diacid)H-Aib-DGTFISDYST-Aib-LDNLAARDFINWLIQTKITK-OH [Compound no. 18] | no activation |  |  | 4.22 nM | 8.4 |  |  |  |  |  |  |
| (C16)H-Aib-DGTFISDYST-Aib-LDNLAARDFINWLIQTKITK-OH [Compound no. 5] | 7.8 | 1.1 nM | 9.0 | 0.355 nM | 9.5 | 15.8 nM |  |  |  |  |  |
| (C16)H-Aib-DGTFISDYSTILD-Aib-LAARDFINWLIQTKITK-OH [Compound no. 6] | 7.4 | 3.2 nM | 8.5 | 0.794 nM | 9.1 | 39.8 nM |  |  |  |  |  |
| (C16)H-Aib-DGTFISDYSTILDNLAARDFIEWLIQTKIT-OH [Compound no. 8] | 8.0 | 5 nM | 8.3 | 1.58 nM | 8.8 | 10 nM |  |  |  |  |  |
| (C16)H-Aib-DGTFISDYSTILDNLAARDFIEWLIQTKITK-OH [Compound no. 7] | 7.4 | 4 nM | 8.4 | 0.891 nM | 9.1 | 39.8 nM |  |  |  |  |  |
| (C16)HADGTFISDYSTILDAibLAARDFINWLIQTKITKNDWKHNITQ [Compound no. 16] |  | 15.8 nM | 7.8 | 0.447 nM | 9.4 |  |  |  |  |  |  |
| (C16)HADGTFISDYSTILDELAARDFINWLIQTKITKNDWKHNITQ [Compound no. 48] | no activation | 25.1 nM | 7.6 | 2.82 nM | 8.6 |  |  |  |  |  |  |
| (C16)HADGTFISDYSTILDNLAAKDFINWLIQTKITK [Compound no. 45] | no activation |  |  | 2.71 nM | 8.6 |  |  |  |  |  |  |
| (C16)HADGTFISDYSTILDNLAARDFIEWLIQTKITKNDWKHNITQ [Compound no. 50] | no activation | 10 nM | 8.0 | 0.891 nM | 9.1 |  |  |  |  |  |  |
| (C16)HADGTFISDYSTILDNLAARDFINWLIATKITKNDWKHNITQ [Compound no. 52] | no activation | 7.9 nM | 8.1 | 0.251 nM | 9.6 |  | 96 |  |  |  |  |
| (C16)HADGTFISDYSTILDNLAARDFINWLIETKITKNDWKHNITQ [Compound no. 51] | no activation | 12.6 nM | 7.9 | 0.398 nM | 9.4 |  |  |  |  |  |  |
| (C16)HADGTFISDYSTILDNLAARDFINWLIQTKIT [Compound no. 2] | no activation | 50.1 nM | 7.3 | 0.464 nM | 9.3 |  |  |  |  |  |  |
| (C16)HADGTFISDYSTILDNLAARDFINWLIQTKITD [Compound no. 1] | no activation | 27.1 nM | 7.6 | 0.584 nM | 9.2 |  |  |  |  |  |  |
| (C16)HADGTFISDYSTILDNLAARDFINWLIQTKITD [Compound no. 4] | no activation | 27.1 nM | 7.6 | 3.69 nM | 8.4 |  |  |  |  |  |  |
| (C16)HADGTFISDYSTILDNLAARDFINWLIQTKITKAEWKHAITQ [Compound no. 49] | no activation | 35.5 nM | 7.5 | 2.82 nM | 8.6 |  |  |  |  |  |  |

| Substance | logEC50 GLP-1R (human GLP-1R; [1]) | EC50 (human GLP-2R; [2]) | logEC50 GLP-2R (human GLP-2R; [2]) | EC50 (human GIPR) | PEC50 GIPR (human GIPR) | EC50 (human GLP-1R; [1]) | Efficacy GIPR (human GIPR) | EC50 (human GLP-1R; [3]) | logEC50 GLP-1R (human GLP-1R; [3]) | EC50 (human GLP-2R; [4]) | logEC50 GLP-2R (human GLP-2R; [4]) |
| --- | --- | --- | --- | --- | --- | --- | --- | --- | --- | --- | --- |
| (C16)HADGTFISDYSTILDNLAARDFINWLLAQKITK [Compound no. 46] | no activation | 23.3 nM | 7.6 | 1.58 nM | 8.8 |  |  |  |  |  |  |
| (C16)HADGTFISDYSTILELLAARDFINWLIQTKITKNDWKHNITQ [Compound no. 15] | no activation | 50.1 nM | 7.3 | 2.93 nM | 8.5 |  |  |  |  |  |  |
| (C16-diacid)H-Aib-DGTFISDYST-Aib-LDALAARDFIEWLIQTKITK-OH [Compound no. 20] | no activation | 1.3 nM | 8.9 | 0.858 nM | 9.1 |  |  |  |  |  |  |
| (C16-diacid)H-Aib-DGTFISDYST-Aib-LDKLAARDFIEWLIQTKITK-OH [Compound no. 22] | no activation | 2.5 nM | 8.6 | 1.1 nM | 9.0 |  |  |  |  |  |  |
| (C16-diacid)H-Aib-DGTFISDYST-Aib-LDKLAARDFINWLIETKITK-OH [Compound no. 23] | no activation | 1.8 nM | 8.8 | 1.78 nM | 8.8 |  |  |  |  |  |  |
| (C16-diacid)H-Aib-DGTFISDYST-Aib-LDNLAAKDFINWLIQTKITKNDWKHNITQ-OH [Compound no. 42] | no activation | 2.8 nM | 8.6 | 0.891 nM | 9.1 |  | 91 |  |  |  |  |
| (C16-diacid)H-Aib-DGTFISDYST-Aib-LDNLAARDFINWLIQTKITK-OH [Compound no. 17] | no activation | 1.7 nM | 8.8 | 0.681 nM | 9.2 |  |  |  |  |  |  |
| (C16-diacid)H-Aib-EGTFISDYST-Aib-LDALAARDFINWLIQTKITKNDWKHNITQ-OH [Compound no. 41] |  | 1.8 nM | 8.8 | 0.708 nM | 9.2 |  |  |  |  |  |  |
| (C16-diacid)H-Aib-EGTFISDYST-Aib-LDKLAARDFINWLIQTKITK-OH [Compound no. 21] |  | 7.9 nM | 8.1 | 0.631 nM | 9.2 |  |  |  |  |  |  |
| (C16-diacid)H-Aib-EGTFISDYST-Aib-LDNLAAKDFINWLIQTKITKNDWKHNITQ-OH [Compound no. 43] | no activation | 2.8 nM | 8.6 |  |  |  |  |  |  |  |  |
| H-Aib-DG-K(γGlu- γGlu-C16)-FISDYST-Aib-LDNLAARDFINWLIQTKITK-OH [Compound no. 28] |  | 1.6 nM | 8.8 | 1.58 nM | 8.8 |  |  |  |  |  |  |
| H-Aib-DGTFISDY-K(γGlu-C10)-T-Aib-LDNLAARDFINWLIQTKITD-OH [Compound no. 30] | no activation | 2.8 nM | 8.6 |  |  |  |  |  |  |  |  |
| H-Aib-DGTFISDYS-K(γGlu-C16)-ILDNLAARDFINWLIQTKITK-OH [Compound no. 12] |  | 0.9 nM | 9.1 | 0.251 nM | 9.6 |  |  |  |  |  |  |
| HADGTFISDYSTILDKLAARDFINWLIQTK(C16)ITK [Compound no. 57] | 7.0 |  |  | 12.6 nM | 7.9 | 100 nM |  |  |  |  |  |
| HADGTFISDYSTILDKLAARDFINWLIQTKITK(C16) [Compound no. 58] |  |  |  | 1.41 nM | 8.9 |  |  |  |  |  |  |
| HADGTFISDYSTILDNLAARDFINWLIQTKGKK(γGlu-C18-diacid) [Compound no. 60, reference compound] |  |  |  |  |  |  |  | 4.47 nM | 8.4 | 70.8 nM | 7.2 |
